# ChEMBL document CHEMBL4390672, “Development of Covalent Ligands for G Protein-Coupled Receptors: A Case for the Human Adenosine A3 Receptor” (J Med Chem, 2019)
# Amino acid sequences for entries named in this document (tags omitted).
# UniProt P0DMS8, whole entry: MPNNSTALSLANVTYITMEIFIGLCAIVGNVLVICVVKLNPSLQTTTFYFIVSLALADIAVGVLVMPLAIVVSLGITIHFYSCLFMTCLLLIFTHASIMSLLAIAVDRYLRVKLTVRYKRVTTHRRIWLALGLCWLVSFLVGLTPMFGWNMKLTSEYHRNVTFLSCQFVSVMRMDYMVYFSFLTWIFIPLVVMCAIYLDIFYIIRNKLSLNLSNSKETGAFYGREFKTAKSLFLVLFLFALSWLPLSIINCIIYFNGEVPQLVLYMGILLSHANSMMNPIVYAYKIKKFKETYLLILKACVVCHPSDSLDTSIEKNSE
# Legend:
# Assay type in all cases: cell-based
# [1] = molecular target: T1, Adenosine receptor A3 (Homo sapiens, UniProt P0DMS8); experiment: Irreversible displacement of [3H]PSB11 from human A3 adenosine receptor expressed in CHO cell membranes assessed as association rate constant measured up to 240 mins by scintillation spectrometry
# [2] = species on record: Homo sapiens; experiment: Selectivity ratio of IC50 for displacement of [3H]PSB11 from human A3 adenosine receptor transiently expressed in CHOK1 cell membranes to IC50 for displacement of [3H]PSB11 from human A3 adenosine receptor Y265F (7.36) mutant transiently expressed in CHOK1 cell membranes
# [3] = molecular target: T1, Adenosine receptor A3; experiment: Irreversible displacement of [3H]PSB11 from human A3 adenosine receptor expressed in CHO cell membranes assessed as dissociation rate constant measured up to 240 mins by scintillation spectrometry
# [4] = molecular target: T1, Adenosine receptor A3; experiment: Irreversible displacement of [3H]PSB11 from human A3 adenosine receptor expressed in CHO cell membranes assessed as residence time measured up to 240 mins by scintillation spectrometry
compound,measurement,setting,value
CCCn1c(=O)c2c(nc3cc(OC)ccn32)n(CCCNC(=O)c2ccc(S(=O)(=O)F)cc2)c1=O,K,[1],3.48 ×10⁵ /M/min
same,Ratio IC50,[2],43
same,K,[3],1.38 ×10⁻¹² /min
same,Time,[4],7.63 ×10¹¹ min
